In patent US20140343165A1, “PLANT PROTECTION AGENT” (priority 2010, published 2014):

System: Erwinia amylovora
Test: In vitro infection tests on apple blossoms
Method: In these tests, streptomycin was used as a positive control.
The in vitro tests on apple blossoms represented the natural course of infection and were conducted as follows: blooming apple blossoms were cut and further cultivated standing in a sterile sugar solution in transparent plastic containers. […] Following another 35 hours of incubation, the blossoms were wet by spraying on water. The infection rate was determined after 8 to 10 days of incubation at 22° C. and 70% relative humidity.

In the case of CC1=CC(=O)c2c(O)cccc2C1=O [Plumbagin, 5-hydroxy-2-methyl-1,4-naphthoquinone], the phyotoxic (0.1 mM) is reported as “no” and the phyotoxic (0.5 mM) is reported as “yes”.
